From PubChem BioAssay (NCI)
“And” between values parts separate entries of the source, which are not always exact repeats. Equal values may be shown once. Only a part is listed here, and it is no random draw.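 Single-concentration screen, 48 h exposure, 96-well plates. Endpoint: percent growth. Below 10 = active.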 The source made the active and inactive calls.

Experiments:
Assay in all cases: NCI-60 one-dose screen, 48 h (100 = growth as untreated, 0 = no growth, -100 = all killed)
Conditions in all cases: 10 µM
[1] = system: NCI-H23 lung
[2] = system: NCI-H226 lung
[3] = system: NCI-H322M lung
[4] = system: HOP-62 NSCLC
[5] = system: NCI-H460 lung
[6] = system: HOP-92 NSCLC
[7] = system: NCI-H522 lung
[8] = system: A549/ATCC NSCLC
[9] = system: 786-0 renal
[10] = system: COLO 205 colon
[11] = system: DU-145 prostate
[12] = system: K-562 leukemia
[13] = system: MALME-3M melanoma
[14] = system: MDA-MB-231 breast
[15] = system: RXF 393 renal
[16] = system: SF-268 CNS
[17] = system: SF-295 CNS
[18] = system: SF-539 CNS
[19] = system: UACC-257 melanoma
[20] = system: M14 melanoma

Measured: growth

ClCCN1CCN(CCCl)CC1
inactive: [1] 101% and 103% | [2] 98.9% and 92.5% | [3] 92.7% and 99.4% | [4] 95.7% and 98.2% | [5] 105% and 103% | [6] 109% | [7] 94% | [8] 96.9% and 98.7% | [9] 105% and 96.4% | [10] 98.9% and 101% | [11] 109% and 90% | [12] 99.8% and 99% | [13] 87.7% and 87.2% | [14] 112% and 106% | [15] 97.2% and 98.3% | [16] 105% and 94.5% | [17] 97.1% and 138% | [18] 102% and 100% | [19] 101% and 98.1% | [20] 101% and 96.3%

NC(=O)C1(Nc2ccccc2)CCN(Cc2ccccc2)CC1
inactive: [1] 101% | [2] 96% | [3] 98.1% | [4] 98% | [5] 117% | [6] 96% | [7] 95.5% | [8] 103% | [9] 103% | [10] 113% | [11] 118% | [12] 109% | [13] 108% | [14] 104% | [15] 117% | [16] 114% | [17] 105% | [18] 104% | [19] 108% | [20] 95.9%

Cc1ccc(CN(CCCl)CCCl)cc1C
inactive: [1] 102% | [2] 93.9% | [3] 98.8% | [4] 106% | [5] 96.3% | [6] 94.9% | [7] 72.1% | [8] 104% | [9] 97% | [10] 107% | [11] 106% | [12] 100% | [13] 85.9% | [14] 105% | [15] 91.7% | [16] 109% | [18] 108% | [19] 102% | [20] 108%

COc1cc(CN(CCCl)CCCl)cc(OC)c1
inactive: [1] 97.2% | [2] 96% | [3] 106% | [4] 95.8% | [5] 109% | [6] 91.2% | [7] 79.2% | [8] 89.9% | [9] 99.5% | [10] 108% | [11] 105% | [12] 85.2% | [13] 95% | [14] 109% | [15] 100% | [16] 98.4% | [18] 101% | [19] 85.2% | [20] 97.3%

N#CC(C#N)=Cc1ccc(N(CCCl)CCCl)cc1
inactive: [1] 69.3% | [2] 50% | [3] 108% | [4] 75.2% | [5] 32.3% | [6] 97.1% | [7] 70.2% | [8] 85.7% | [9] 71.7% | [10] 106% | [11] 68.1% | [12] 75.9% | [13] 93.3% | [14] 97.4% | [15] 82.7% | [16] 78.1% | [17] 86.8% | [18] 76.1% | [19] 87.1% | [20] 87.1%

Cc1ccc2oc(=O)cc(CN(CCCl)CCCl)c2c1
inactive: [1] 92.9% | [2] 90.5% | [3] 106% | [4] 91.7% | [5] 89.5% | [6] 106% | [7] 74.6% | [8] 96.2% | [9] 109% | [10] 98.8% | [11] 98.7% | [12] 113% | [13] 107% | [14] 95.5% | [15] 86.5% | [16] 91.4% | [17] 102% | [18] 97.5% | [19] 92% | [20] 98.1%

Oc1ccc(N(CCCl)CCCl)cc1
inactive: [1] 82.2% | [2] 92.3% | [3] 112% | [4] 90.9% | [5] 16.3% | [6] 86.7% | [7] 76.9% | [8] 54.4% | [9] 96.4% | [10] 81.9% | [11] 104% | [12] 79.2% | [13] 109% | [14] 115% | [15] 92.8% | [16] 66.5% | [17] 47.7% | [18] 74.2% | [19] 102% | [20] 87.7%

O=C(O)c1ccc(N(CCCl)CCCl)cc1
inactive: [1] 111% | [2] 104% | [3] 136% | [4] 107% | [5] 112% | [6] 118% | [7] 83.9% | [8] 105% | [9] 115% | [10] 121% | [11] 117% | [12] 96.5% | [13] 141% | [14] 120% | [15] 118% | [16] 104% | [17] 117% | [18] 105% | [19] 108% | [20] 113%
